Source: paper PMC5502072, “Safety, tolerability and pharmacokinetics of the fibroblast growth factor receptor inhibitor AZD4547 in Japanese patients with advanced solid tumours: a Phase I study” (Investigational New Drugs, 2017)
Values joined by “and” are separate entries in the source; they are usually repeats but may differ in a detail not shown here. Identical values can stand only once.

Tests used:
[1] = design: method as in earlier work; conditions: cited from earlier work
[2] = Plasma pharmacokinetics after single and multiple oral dosing (HPLC-MS/MS, non-compartmental); format: in vivo, human; conditions: for AUC / AUC0–t / Cmax / Dose-normalized AUC / Dose-normalized Cmax: geometric mean (CV%); for tmax: median
[3] = multiple dosing, Part A and Part B, 80 mg bid (N = 10), arithmetic mean (SD)
[4] = multiple dosing, Part A, 40 mg bid (N = 3), arithmetic mean (SD)
[5] = multiple dosing, Part A, 160 mg qd (N = 15), arithmetic mean (SD)
[6] = multiple dosing, steady state, Part A and Part B, 80 mg bid (N = 10)
[7] = multiple dosing, steady state, Part A, 40 mg bid (N = 3)
[8] = multiple dosing, steady state, Part A, 120 mg bid (N = 6)
[9] = multiple dosing, steady state, Part A, 160 mg qd (N = 15)
[10] = single dosing, Part A and Part B, 80 mg bid cohort (N = 10)
[11] = single dosing, Part A, 40 mg bid cohort (N = 3)
[12] = single dosing, Part A, 120 mg bid cohort (N = 6)
[13] = single dosing, Part A, 160 mg qd cohort (N = 15)
[14] = single dosing, across the dosing levels

Substance: AZD4547
- Treatment-related DLTs observed ([1]; dose range 20–200 mg bid): renal failure, elevated liver enzymes, hyperphosphataemia, and mucositis
- Safety profile ([1]; monotherapy, several tumour types): acceptable safety profile
- Plasma concentrations compared with single dosing, on average ([2]; after qd dosing): 2.4 fold higher
- CV% for AUCss ([2]; multiple dosing): 10.5–61.0%
- CV% for Css,max ([2]; multiple dosing): 23.0–65.9%
- Steady state reached by ([2]; multiple dosing (bid and qd)): ≤ 8 days
- RAC (accumulation ratio; multiple-dose AUCss to single-dose AUC0–12h) [2, 3]: 4.87 (±2.42) and 4.870 (2.421)
- Tc (temporal change; ratio of multiple-dose AUCss to single-dose AUC) [2, 3]: 1.914 (0.8593)
- RAC (accumulation ratio; multiple-dose AUCss to single-dose AUC0–12h) [2, 4]: 3.34 (±1.98) and 3.336 (1.984)
- Tc (temporal change; ratio of multiple-dose AUCss to single-dose AUC) [2, 4]: 1.37 (±1.01) and 1.372 (1.014)
- Tc (temporal change; ratio of multiple-dose AUCss to single-dose AUC) ([2]; multiple dosing, Part A, 120 mg bid (N = 6), arithmetic mean (SD)): 1.61 (±1.41) and 1.610 (1.409)
- RAC (accumulation ratio; multiple-dose AUCss to single-dose AUC0–24h) [2, 5]: 2.42 (±1.56) and 2.423 (1.555)
- Tc (temporal change; ratio of multiple-dose AUCss to single-dose AUC) [2, 5]: 1.37 (±0.88) and 1.372 (0.8796)
- Dose-normalized AUCss ([2]; multiple dosing, range across dosing levels): 11.4 to 29.7 ng·h/mL
- AUC [2, 6]: 2379 (56.09) h · ng/mL
- AUC0–t [2, 6]: 2099 (56.97) h · ng/mL
- Cmax [2, 6]: 272.8 (60.13) ng/mL
- Dose-normalized AUC [2, 6]: 29.74 (56.09) h · ng/mL
- Dose-normalized Cmax [2, 6]: 3.410 (60.13) ng/mL
- tmax [2, 6]: 2.950 h
- AUC [2, 7]: 456.6 (10.46) h · ng/mL
- AUC0–t [2, 7]: 408.3 (11.06) h · ng/mL
- Cmax [2, 7]: 67.81 (23.00) ng/mL
- Dose-normalized AUC [2, 7]: 11.41 (10.46) h · ng/mL
- Dose-normalized Cmax [2, 7]: 1.695 (23.00) ng/mL
- tmax [2, 7]: 2.920 h
- AUC [2, 8]: 2072 (42.08) h · ng/mL
- AUC0–t [2, 8]: 1808 (40.80) h · ng/mL
- Cmax [2, 8]: 215.8 (36.43) ng/mL
- Dose-normalized AUC [2, 8]: 17.27 (42.08) h · ng/mL
- Dose-normalized Cmax [2, 8]: 1.799 (36.43) ng/mL
- tmax [2, 8]: 3.930 h
- AUC [2, 9]: 4134 (61.04) h · ng/mL
- AUC0–t [2, 9]: 4134 (60.87) h · ng/mL
- Cmax [2, 9]: 302.9 (65.89) ng/mL
- Dose-normalized AUC [2, 9]: 25.84 (61.04) h · ng/mL
- Dose-normalized Cmax [2, 9]: 1.893 (65.89) ng/mL
- tmax [2, 9]: 3.960 h
- Time of peak plasma concentrations post-dose ([2]; single and multiple dosing): 3 to 4 h
- Terminal half-life ([2]; single and multiple dosing, biphasic decline): ~ 30 h
- t1/2λz ([2]; single dosing, Part A and Part B, 80 mg bid cohort (N = 10), arithmetic mean (SD)): 28.82 (5.198) h
- AUC [2, 10]: 1539 (53.28) h · ng/mL
- AUC0–t [2, 10]: 1452 (50.71) h · ng/mL
- Cmax [2, 10]: 88.41 (81.41) ng/mL
- Dose-normalized AUC [2, 10]: 19.24 (53.28) h · ng/mL
- Dose-normalized Cmax [2, 10]: 1.105 (81.41) ng/mL
- tmax [2, 10]: 3.000 h
- t1/2λz ([2]; single dosing, Part A, 40 mg bid cohort (N = 3), arithmetic mean (SD)): 22.42 (7.215) h
- AUC0–t [2, 11]: 353.9 (71.52) h · ng/mL
- Cmax [2, 11]: 24.30 (54.07) ng/mL
- Dose-normalized Cmax [2, 11]: 0.6075 (54.07) ng/mL
- tmax [2, 11]: 4.000 h
- t1/2λz ([2]; single dosing, Part A, 120 mg bid cohort (N = 6), arithmetic mean (SD)): 33.46 (7.492) h
- AUC [2, 12]: 2058 (116.6) h · ng/mL
- AUC0–t [2, 12]: 1794 (124.1) h · ng/mL
- Cmax [2, 12]: 99.78 (141.5) ng/mL
- Dose-normalized AUC [2, 12]: 17.15 (116.6) h · ng/mL
- Dose-normalized Cmax [2, 12]: 0.8315 (141.5) ng/mL
- tmax [2, 12]: 2.990 h
- t1/2λz ([2]; single dosing, Part A, 160 mg qd cohort (N = 15), arithmetic mean (SD)): 27.96 (4.214) h
- AUC [2, 13]: 3417 (66.96) h · ng/mL
- AUC0–t [2, 13]: 3055 (63.53) h · ng/mL
- Cmax [2, 13]: 216.2 (68.30) ng/mL
- Dose-normalized AUC [2, 13]: 21.36 (66.96) h · ng/mL
- Dose-normalized Cmax [2, 13]: 1.351 (68.30) ng/mL
- tmax [2, 13]: 2.930 h
- CV% for AUC [2, 14]: 53.3–117%
- CV% for Cmax [2, 14]: 54.0–142%
